{
  "source": "paper PMC11272584",
  "about": "(Nature Metabolism, 2024)",
  "key": {"GIPR A294V": {"biological_target": "T1, GIPR A294V (Homo sapiens, UniProt P48546, A294V)", "T1 sequence (P48546 22-466 A294V)": "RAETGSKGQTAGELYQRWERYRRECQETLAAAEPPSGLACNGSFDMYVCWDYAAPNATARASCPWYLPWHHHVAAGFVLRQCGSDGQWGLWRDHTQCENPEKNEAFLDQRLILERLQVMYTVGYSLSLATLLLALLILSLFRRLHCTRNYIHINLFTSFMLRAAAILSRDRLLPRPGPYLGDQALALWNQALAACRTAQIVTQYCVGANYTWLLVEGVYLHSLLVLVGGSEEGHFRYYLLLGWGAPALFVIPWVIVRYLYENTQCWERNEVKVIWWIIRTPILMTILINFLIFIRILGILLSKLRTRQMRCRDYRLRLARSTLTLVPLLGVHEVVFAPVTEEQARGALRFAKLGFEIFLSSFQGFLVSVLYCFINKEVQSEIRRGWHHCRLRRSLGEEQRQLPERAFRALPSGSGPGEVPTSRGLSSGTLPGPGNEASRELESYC", "conditions": "GIPR A294V (ECL2), mean, n = 3, duplicate"}, "GIPR E354Q": {"biological_target": "T2, GIPR E354Q (Homo sapiens, UniProt P48546, E354Q)", "T2 sequence (P48546 22-466 E354Q)": "T1 sequence (P48546 22-466 A294V) with V273A, E333Q", "conditions": "GIPR E354Q (6.53), mean, n = 4, duplicate"}, "GIPR H166Y": {"biological_target": "T3, GIPR H166Y (Homo sapiens, UniProt P48546, H166Y)", "T3 sequence (P48546 22-466 H166Y)": "T1 sequence (P48546 22-466 A294V) with H145Y, V273A", "conditions": "HEK293A, 1 µM GIP minus vehicle, n = 4, P = 0.0248"}, "GIPR L13F": {"biological_target": "T4, GIPR L13F (Homo sapiens, UniProt P48546)", "T4 sequence (P48546 22-466)": "T1 sequence (P48546 22-466 A294V) with V273A", "assay": "cAMP accumulation", "type": "cell-based", "parameters": "host or cells: HEK293"}, "GIPR T25R": {"biological_target": "T5, GIPR T25R (Homo sapiens, UniProt P48546, T25R)", "T5 sequence (P48546 22-466 T25R)": "T1 sequence (P48546 22-466 A294V) with T4R, V273A", "assay": "cAMP accumulation", "type": "cell-based", "parameters": "host or cells: HEK293"}, "[1]": {"conditions": "HEK293, GIP(1–42) 1 pM–100 nM, 30 min 37 °C, mean of n = 4"}, "[2]": {"conditions": "HEK293, Hill slope 1.0, mean of n = 4"}},
  "note": "Numbering of substitutions follows the chain as printed.",
  "data": [
    {"substance": "glucose-dependent insulinotropic polypeptide [GIP]", "values": [
      {"measurement": "logEC50 (Arrestin)", "setting": "GIPR A294V; Hill slope 1.0", "value": -9.0},
      {"measurement": "Arrestin (Emax)", "setting": "GIPR A294V; normalized to WT GIPR", "value": 63},
      {"measurement": "logEC50 (Arrestin)", "setting": "GIPR E354Q; Hill slope 1.0", "value": -8.5},
      {"measurement": "Arrestin (Emax)", "setting": "GIPR E354Q; normalized to WT GIPR", "value": 98},
      {"measurement": "Mean of ΔBRET", "setting": "GIPR H166Y", "value": 0.0316},
      {"measurement": "cAMP (Emax)", "setting": "GIPR L13F; [1]", "value": "87 % of WT GIPR activity"},
      {"measurement": "logEC50 (cAMP)", "setting": "GIPR L13F; [2]", "value": -11.3},
      {"measurement": "cAMP (Emax)", "setting": "GIPR T25R; [1]", "value": "113 % of WT GIPR activity"},
      {"measurement": "logEC50 (cAMP)", "setting": "GIPR T25R; [2]", "value": -10.2},
      {"measurement": "Signalling capacity (cAMP)", "setting": "GIPR T25R; cAMP, relative to WT", "value": "over 50%"}
    ]}
  ]
}
